Experimental data reported in PubChem BioAssay AID651819 (National Center for Advancing Translational Sciences (NCATS), 2012).
The entries are a selection whose mix differs from that of the whole data set. Calls of active or inactive are those of the source. Rule as the data show it: active = activity change below about -30%; inactive = the rest.

system: cytosolic chaperonin (CCT/TRiC complex); assay: High-Throughput Screening for Modulators of Cytosolic Chaperonin Activity; settings: purified chaperonin ATPase assay, HTRF ADP detection, 30 min; hits give low values
From the text: The eukaryotic chaperonin named TRiC (for TCP-1 ring complex), also called CCT (for chaperonin containing TCP1), is an essential and conserved chaperone required for the folding and activation of 10-15% of the proteins encoded by the human genome. […] Despite its central role in cellular folding, little is known about TRiC mechanism and mode of substrate binding. Currently, no specific TRiC inhibitors are available. Given the early promise of other chaperone-directed inhibitors as cancer therapeutics (e.g. HSP90 inhibitors), inhibitors of TRiC activity may also selectively target transformed cells and have potential use as therapeutics for cancer.
To this end, a miniaturized assay was developed to screen against the Molecular Libraries Small Molecule Repository (MLSMR).
NIH Chemical Genomics Center [NCGC] […]
1.5 uL/well TRiC enzyme suspended in buffer (30 mM TRIS pH7.4, 100 mM KCl, 5 mM MgCl2, 1 mM DTT) was added with BioRAPTR FRD dispenser at 40 nM or 20 nM (based on the enzymatic activity of used batches) final concentration to a white solid bottom medium binding 1536-well plate (Greiner Bio-One, Monroe, NC), and quickly spanned down. […] Then, the plates were read using Envision reader with excitation at 330nm and emission at 615nm (Eu(3)-Cryptate donor signal) and 665nm (d2 acceptor signal). The ratio of […] was calculated for each well.
% is scaled to controls: 0 for no effect and ±100 for the full control effect.

Compound | activity change
CCC(=O)N(c1ccccc1)C1(COC)CCN(CCc2cccs2)CC1 | inactive: -0.331%
CCC(=O)N(c1ccccc1)C1(COC)CCN(CCn2nnn(CC)c2=O)CC1 | inactive: 0.145%
